Measured values as given in patent publication US20250251402A1, “METHODS OF DETECTING MOLECULAR AGGREGATES USING IMAGE CORRELATION SPECTROSCOPY (ICS)” (The General Hospital Corporation, priority 2022, published 2025).

By UniProt entry, the sequences of proteins in these tests, tags left out. Residues count along the entry.
UniProt P09874, whole entry, species assumed: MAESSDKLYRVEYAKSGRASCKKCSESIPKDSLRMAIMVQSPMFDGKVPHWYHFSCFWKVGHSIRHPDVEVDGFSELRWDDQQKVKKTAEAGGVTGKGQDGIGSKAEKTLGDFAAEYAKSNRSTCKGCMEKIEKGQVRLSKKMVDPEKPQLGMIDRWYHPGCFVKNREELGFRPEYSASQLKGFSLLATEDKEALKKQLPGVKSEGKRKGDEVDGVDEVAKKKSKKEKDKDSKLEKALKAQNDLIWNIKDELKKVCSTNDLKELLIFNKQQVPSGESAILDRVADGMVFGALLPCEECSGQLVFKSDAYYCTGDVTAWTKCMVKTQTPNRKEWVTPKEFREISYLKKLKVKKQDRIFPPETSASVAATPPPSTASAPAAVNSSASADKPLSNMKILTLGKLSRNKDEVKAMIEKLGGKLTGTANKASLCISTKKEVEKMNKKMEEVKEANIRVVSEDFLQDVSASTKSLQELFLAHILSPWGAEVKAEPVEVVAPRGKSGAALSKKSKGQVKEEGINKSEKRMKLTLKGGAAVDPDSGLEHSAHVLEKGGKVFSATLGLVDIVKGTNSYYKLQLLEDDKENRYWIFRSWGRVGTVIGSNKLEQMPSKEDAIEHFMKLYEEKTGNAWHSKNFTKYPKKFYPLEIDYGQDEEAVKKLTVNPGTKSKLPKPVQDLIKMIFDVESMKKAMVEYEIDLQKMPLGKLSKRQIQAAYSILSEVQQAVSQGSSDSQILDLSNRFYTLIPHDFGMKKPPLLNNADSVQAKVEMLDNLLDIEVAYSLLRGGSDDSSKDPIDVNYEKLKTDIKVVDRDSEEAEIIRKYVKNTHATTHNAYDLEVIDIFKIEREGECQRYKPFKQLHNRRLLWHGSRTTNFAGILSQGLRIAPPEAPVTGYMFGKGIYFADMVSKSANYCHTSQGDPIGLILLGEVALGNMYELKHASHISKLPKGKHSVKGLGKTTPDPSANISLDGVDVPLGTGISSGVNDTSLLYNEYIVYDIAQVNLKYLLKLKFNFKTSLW
UniProt P09874, 2-1014: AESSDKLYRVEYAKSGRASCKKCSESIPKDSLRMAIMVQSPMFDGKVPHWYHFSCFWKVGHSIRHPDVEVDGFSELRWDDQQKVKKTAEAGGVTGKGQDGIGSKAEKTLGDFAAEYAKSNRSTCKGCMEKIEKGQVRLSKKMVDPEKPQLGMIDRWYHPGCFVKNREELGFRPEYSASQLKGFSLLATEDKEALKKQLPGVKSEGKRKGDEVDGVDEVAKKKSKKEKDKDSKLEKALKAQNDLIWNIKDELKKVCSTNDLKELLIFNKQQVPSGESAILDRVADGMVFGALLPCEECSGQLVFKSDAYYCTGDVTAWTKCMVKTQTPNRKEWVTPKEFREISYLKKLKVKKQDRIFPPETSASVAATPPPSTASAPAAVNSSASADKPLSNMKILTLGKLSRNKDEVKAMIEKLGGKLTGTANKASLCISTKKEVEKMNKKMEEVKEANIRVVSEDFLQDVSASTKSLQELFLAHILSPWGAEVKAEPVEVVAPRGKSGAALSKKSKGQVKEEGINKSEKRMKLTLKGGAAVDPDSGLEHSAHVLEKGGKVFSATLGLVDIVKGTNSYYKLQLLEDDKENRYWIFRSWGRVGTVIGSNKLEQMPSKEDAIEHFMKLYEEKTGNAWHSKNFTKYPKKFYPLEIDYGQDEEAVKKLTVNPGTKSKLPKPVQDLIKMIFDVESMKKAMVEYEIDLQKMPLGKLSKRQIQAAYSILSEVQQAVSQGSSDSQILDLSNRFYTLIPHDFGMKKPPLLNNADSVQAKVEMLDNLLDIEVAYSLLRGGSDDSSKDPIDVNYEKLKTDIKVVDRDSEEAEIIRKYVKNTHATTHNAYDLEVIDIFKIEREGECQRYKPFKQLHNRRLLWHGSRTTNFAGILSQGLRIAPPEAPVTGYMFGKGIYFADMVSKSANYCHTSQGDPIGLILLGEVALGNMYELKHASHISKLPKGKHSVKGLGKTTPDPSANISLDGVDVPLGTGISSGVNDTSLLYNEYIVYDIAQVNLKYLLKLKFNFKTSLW

Columns and labels:
PARP1 [1] = target: T1, PARP1 (Homo sapiens, UniProt P09874); test: PARP1 trapping by chromatin fractionation in HT1080 cells; format: cell-based; conditions: HT1080, 1 μM PARPi overnight, five clinical PARPi
PARP1 [2] = target: T1, PARP1; conditions: actual rate multiplied by 10^−7 for the stochastic model
PARP = PARP (Homo sapiens, UniProt P09874); conditions: HT1080, 1 μM PARPi, 500 nM fluorescent olaparib
PARP1 [3] = target: T1, PARP1; conditions: average of previous measurements; cited from earlier work
PARP1-DNA = PARP1-DNA (Homo sapiens, UniProt P09874); conditions: from previous findings; cited from earlier work

Cn1ncnc1[C@H]1c2n[nH]c(=O)c3cc(F)cc(c23)N[C@@H]1c1ccc(F)cc1 [talazoparib]
PARP1 trapping normalized to DMSO control (PARP1 [1]): most distinct difference in trapping | p.ka_trap: association of PARPi to PARP1, corrected rate (PARP1 [2]): 0.036 M⁻¹ s⁻¹ | Apparent dissociation constant (koff) of PARPi in live cells (PARP): values similar to those previously determined in purified protein | ka (trap): association constant of PARPi for PARP1 (PARP1 [3]): 360000 M⁻¹ s⁻¹ | kd (trap): dissociation of PARPi from PARP1(-DNA) (PARP1 [3]): 8e-05 s⁻¹ | kd (rel PARPi): dissociation constant of PARPi-PARP1 from DNA (PARP1-DNA): 0.00252 s⁻¹
